ChEMBL document CHEMBL3739416, “Discovery of a marine-derived bis-indole alkaloid fascaplysin, as a new class of potent P-glycoprotein inducer and establishment of its structure-activity relationship” (Eur J Med Chem, 2016)

System: LS180
Assay: Induction of P-glycoprotein expression in human LS180 cells at 1 uM by Western blot analysis relative to control
Type: cell-based

O=C1c2ccccc2-[n+]2ccc3c([nH]c4ccccc43)c21.[Cl-] [FASCAPLYSIN CHLORIDE]
fold change (FC): 4
